Assays:
HER3 His tag [1] = target: HER3 His tag (UniProt P21860); experiment: ELISA; settings: bispecific antibody
[2] = target: HER3 tag free antigen (immobilized) (UniProt P21860); experiment: ELISA; dual-binding sandwich: immobilized HER3-Fc + EGFR-His; settings: bispecific antibody
HER3 His tag [3] = target: HER3 His tag (UniProt P21860); experiment: direct ELISA, His-tagged antigen coated, anti-human Fc-HRP detection

| EC50 (HER3 His tag [1]) | EC50 [2] | EC50 (HER3 His tag [3]) | Substance |
| --- | --- | --- | --- |
| 0.0197 nM | 2 nM |  | Patri-Cetu-Fc |
|  |  | 0.19 nM | Patri-Cetu-Fc (bispecific antibody; other documents disagree on this pair) |

Source: patent US20250282892A1
